Results reported in patent US20060094649A1, “Hla-a1,-a2,-a3,-a24,-b7, and-b44 tumor associated antigen peptides and compositions” (priority 2002, published 2006).

What follows are compounds tested on HLA-B44 supertype molecules (assay: HLA-B44 supertype cross-binding). Details: number of the six B44 supertype alleles bound.
Design: species or system human

In order of falling Degeneracy:
1. CSCC[C@H](NC(=O)[C@H](CO)NC(=O)[C@H](CCC(=O)O)NC(=O)[C@@H](N)Cc1ccccc1)C(=O)N1CCC[C@H]1C(=O)N[C@@H](CC(N)=O)C(=O)N1CCC[C@H]1C(=O)N[C@@H](CCC(=O)O)C(=O)NCC(=O)N[C@@H](CCCNC(=N)N)C(=O)N[C@@H](Cc1ccc(O)cc1)C(=O)O [compound 508]  3
2. CC[C@H](C)[C@H](NC(=O)[C@H](CCCCN)NC(=O)[C@H](CCCCN)NC(=O)[C@H](CS)NC(=O)CNC(=O)[C@H](C)NC(=O)[C@H](Cc1ccccc1)NC(=O)[C@H](CCC(=O)O)NC(=O)[C@@H](N)CCC(N)=O)C(=O)O [compound 509]  3
3. CC[C@H](C)[C@H](NC(=O)[C@H](CCC(=O)O)NC(=O)[C@H](CCC(=O)O)NC(=O)[C@H](CC(C)C)NC(=O)[C@@H](NC(=O)[C@H](CCC(=O)O)NC(=O)[C@@H](N)Cc1ccccc1)[C@@H](C)O)C(=O)N[C@H](C(=O)NCC(=O)N[C@@H](Cc1ccc(O)cc1)C(=O)N[C@@H](CC(C)C)C(=O)O)[C@@H](C)O [compound 510]  3
4. CC(C)C[C@H](NC(=O)CNC(=O)[C@H](CCC(=O)O)NC(=O)CNC(=O)[C@@H](NC(=O)[C@H](CS)NC(=O)[C@H](CCC(=O)O)NC(=O)[C@H](CC(=O)O)NC(=O)[C@H](CCC(=O)O)NC(=O)[C@@H]1CCCN1)C(C)C)C(=O)O [compound 512]  3
5. CC(C)C[C@H](NC(=O)CNC(=O)[C@H](CCC(=O)O)NC(=O)CNC(=O)[C@@H](NC(=O)[C@H](CS)NC(=O)[C@H](CCC(=O)O)NC(=O)[C@@H](N)CC(=O)O)C(C)C)C(=O)O [compound 513]  3
6. CC[C@H](C)[C@H](NC(=O)[C@H](CCC(=O)O)NC(=O)[C@H](CCCCN)NC(=O)[C@H](CC(N)=O)NC(=O)[C@H](C)NC(=O)[C@H](CCCCN)NC(=O)[C@@H]1CCCN1C(=O)[C@H](CO)NC(=O)[C@@H](NC(=O)[C@H](CC(N)=O)NC(=O)[C@H](CCC(=O)O)NC(=O)[C@@H](N)CCCNC(=N)N)[C@@H](C)O)C(=O)N[C@@H](CC(C)C)C(=O)O [compound 515]  3
7. CC[C@H](C)[C@H](NC(=O)[C@H](CCC(=O)O)NC(=O)[C@@H](N)CCCCN)C(=O)N[C@@H](CC(C)C)C(=O)N[C@@H](CC(=O)O)C(=O)N[C@@H](CCC(=O)O)C(=O)N[C@@H](C)C(=O)N[C@@H](Cc1ccc(O)cc1)C(=O)O [compound 516]  3
8. CSCC[C@H](NC(=O)[C@@H](NC(=O)[C@H](Cc1ccc(O)cc1)NC(=O)[C@H](C)NC(=O)[C@H](CCC(=O)O)NC(=O)[C@@H](N)CC(=O)O)C(C)C)C(=O)N[C@@H](C)C(=O)NCC(=O)N[C@H](C(=O)O)C(C)C [compound 517]  3
9. CC[C@H](C)[C@H](NC(=O)[C@H](CO)NC(=O)[C@H](CCC(=O)O)NC(=O)[C@@H](N)CC(C)C)C(=O)N[C@@H](CC(C)C)C(=O)N[C@@H](CCCNC(=N)N)C(=O)N[C@@H](CCCNC(=N)N)C(=O)N[C@@H](CCCNC(=N)N)C(=O)N[C@@H](Cc1ccccc1)C(=O)O [compound 518]  3
10. CSCC[C@H](NC(=O)[C@H](CC(C)C)NC(=O)[C@H](CCC(=O)O)NC(=O)[C@@H](N)Cc1c[nH]c2ccccc12)C(=O)N[C@H](C(=O)N[C@@H](Cc1ccccc1)C(=O)NCC(=O)N[C@@H](C)C(=O)N[C@@H](CCCCN)C(=O)N1CCC[C@H]1C(=O)N[C@@H](Cc1ccc(O)cc1)C(=O)O)[C@@H](C)O [compound 519]  3
11. CC[C@H](C)[C@H](NC(=O)[C@H](CCC(=O)O)NC(=O)[C@@H](N)CCCNC(=N)N)C(=O)N1CCC[C@H]1C(=O)N[C@@H](CC(=O)O)C(=O)N[C@@H](CC(C)C)C(=O)N[C@@H](CC(C)C)C(=O)N[C@@H](CCC(=O)O)C(=O)N[C@@H](CCCCN)C(=O)NCC(=O)N[C@@H](CCC(=O)O)C(=O)N[C@@H](CCCNC(=N)N)C(=O)N[C@@H](CC(C)C)C(=O)O [compound 520]  3
12. CC[C@H](C)[C@H](NC(=O)[C@@H]1CCCN1C(=O)[C@@H]1CCCN1C(=O)[C@H](CCC(N)=O)NC(=O)[C@@H]1CCCN1C(=O)[C@H](CC(C)C)NC(=O)[C@H](CCCNC(=N)N)NC(=O)[C@H](CCC(=O)O)NC(=O)CN)C(=O)N[C@@H](CS)C(=O)N[C@H](C(=O)O)[C@@H](C)O [compound 521]  3
13. CC(C)C[C@H](NC(=O)[C@H](CCC(=O)O)NC(=O)[C@H](CCCNC(=N)N)NC(=O)[C@H](Cc1ccccc1)NC(=O)[C@H](CCCNC(=N)N)NC(=O)[C@@H]1CCCN1C(=O)[C@H](CCCNC(=N)N)NC(=O)[C@H](CS)NC(=O)[C@H](CCC(=O)O)NC(=O)[C@@H](N)CO)C(=O)N[C@H](C(=O)O)C(C)C [compound 522]  3
14. CC(C)[C@H](NC(=O)[C@H](CC(=O)O)NC(=O)[C@H](CO)NC(=O)CNC(=O)[C@H](C)NC(=O)CNC(=O)[C@H](CCC(=O)O)NC(=O)[C@@H](N)CO)C(=O)N[C@@H](Cc1ccccc1)C(=O)O [compound 523]  3
15. CC(C)C[C@H](NC(=O)CNC(=O)[C@H](CC(C)C)NC(=O)[C@H](Cc1ccc(O)cc1)NC(=O)[C@H](CCC(=O)O)NC(=O)[C@@H]1CCCN1)C(=O)N[C@@H](CC(=O)O)C(=O)N[C@H](C(=O)N1CCC[C@H]1C(=O)N[C@H](C(=O)O)C(C)C)C(C)C [compound 524]  3
16. CSCC[C@H](N)C(=O)N[C@@H](CCC(=O)O)C(=O)N[C@@H](Cc1c[nH]cn1)C(=O)N[C@@H](CC(C)C)C(=O)N[C@@H](CCCNC(=N)N)C(=O)N[C@@H](CCC(=O)O)C(=O)N[C@H](C(=O)N[C@@H](CCCNC(=N)N)C(=O)N[C@@H](C)C(=O)N[C@H](C(=O)N[C@H](C(=O)O)[C@@H](C)O)C(C)C)C(C)C [compound 526]  2
17. CC[C@H](C)[C@H](NC(=O)[C@H](CCC(=O)O)NC(=O)[C@H](CCC(=O)O)NC(=O)[C@@H](N)CC(C)C)C(=O)N[C@H](C(=O)NCC(=O)N[C@@H](Cc1ccc(O)cc1)C(=O)N[C@@H](CC(C)C)C(=O)O)[C@@H](C)O [compound 527]  2
18. CC[C@H](C)[C@H](NC(=O)[C@@H]1CCCN1C(=O)[C@H](CS)NC(=O)[C@@H]1CCCN1C(=O)[C@H](CCC(N)=O)NC(=O)[C@H](CS)NC(=O)[C@H](C)NC(=O)CNC(=O)[C@H](CCC(=O)O)NC(=O)[C@H](CCC(=O)O)NC(=O)[C@@H](N)CC(=O)O)C(=O)O [compound 528]  2
19. CC(C)C[C@H](NC(=O)[C@@H]1CCCN1C(=O)[C@H](CCC(=O)O)NC(=O)[C@@H](NC(=O)[C@H](CC(C)C)NC(=O)[C@H](CCC(=O)O)NC(=O)[C@@H](N)[C@@H](C)O)C(C)C)C(=O)O [compound 529]  2
20. CC(C)C[C@H](NC(=O)[C@@H]1CCCN1C(=O)[C@H](CCC(=O)O)NC(=O)[C@@H](N)C(C)C)C(=O)N[C@H](C(=O)N1CCC[C@H]1C(=O)N[C@@H](CO)C(=O)NCC(=O)N[C@@H](C)C(=O)O)[C@@H](C)O [compound 530]  2
21. CC(C)C[C@H](NC(=O)[C@H](CCC(=O)O)NC(=O)[C@@H](NC(=O)[C@H](CCC(=O)O)NC(=O)[C@@H](N)CCCCN)[C@@H](C)O)C(=O)N[C@@H](CCCNC(=N)N)C(=O)N[C@@H](CCCCN)C(=O)N[C@H](C(=O)N[C@@H](CCCCN)C(=O)N[C@H](C(=O)O)C(C)C)C(C)C [compound 531]  2
22. CC(C)C[C@H](NC(=O)[C@@H](NC(=O)[C@H](CCCCN)NC(=O)[C@@H](NC(=O)[C@H](CCCCN)NC(=O)[C@H](CCCNC(=N)N)NC(=O)[C@H](CC(C)C)NC(=O)[C@H](CCC(=O)O)NC(=O)[C@@H](N)[C@@H](C)O)C(C)C)C(C)C)C(=O)O [compound 532]  2
